Results taken from ChEMBL document CHEMBL1125327, “Conformationally restricted deltorphin analogues” (J Med Chem, 1992).
Values joined by “and” are separate entries in the source; they are usually repeats but may differ in a detail not shown here. Identical values can stand only once.

Sequences of proteins named here, by UniProt entry; tags and fusion partners are left off.
UniProt P33533, whole entry, looked up: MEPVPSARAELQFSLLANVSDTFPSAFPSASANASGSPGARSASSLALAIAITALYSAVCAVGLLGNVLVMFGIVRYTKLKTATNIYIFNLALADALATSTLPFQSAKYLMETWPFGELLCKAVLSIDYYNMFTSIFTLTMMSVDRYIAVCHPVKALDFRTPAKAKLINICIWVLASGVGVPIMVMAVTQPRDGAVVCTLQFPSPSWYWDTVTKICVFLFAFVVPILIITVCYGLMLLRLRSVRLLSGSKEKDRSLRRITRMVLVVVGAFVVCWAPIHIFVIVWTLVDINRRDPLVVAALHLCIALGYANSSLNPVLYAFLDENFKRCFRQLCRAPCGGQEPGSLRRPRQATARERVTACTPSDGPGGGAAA
UniProt P33535, whole entry, looked up: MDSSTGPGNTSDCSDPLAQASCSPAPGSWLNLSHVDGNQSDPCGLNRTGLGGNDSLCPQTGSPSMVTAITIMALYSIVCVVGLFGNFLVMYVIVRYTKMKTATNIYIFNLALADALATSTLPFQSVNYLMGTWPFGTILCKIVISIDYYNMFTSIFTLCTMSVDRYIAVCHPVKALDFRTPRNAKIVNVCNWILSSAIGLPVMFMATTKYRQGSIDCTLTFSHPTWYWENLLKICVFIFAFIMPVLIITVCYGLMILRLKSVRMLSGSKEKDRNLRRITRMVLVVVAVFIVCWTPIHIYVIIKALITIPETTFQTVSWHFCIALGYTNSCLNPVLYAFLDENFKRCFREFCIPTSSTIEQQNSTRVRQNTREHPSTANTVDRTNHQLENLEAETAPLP

What was measured:
[1] = molecular target: Delta-type opioid receptor (Rattus norvegicus) (UniProt P33533); experiment: Potency to inhibit [3H]- ]DSLET binding to Opioid receptor mu 1 relative to [Leu]enkephalin
[2] = molecular target: Delta-type opioid receptor (Rattus norvegicus) (UniProt P33533); experiment: Potency to inhibit [3H]- ]DSLET binding to delta receptor relative to [Leu]enkephalin
[3] = molecular target: Mu-type opioid receptor (Rattus norvegicus) (UniProt P33535); experiment: Potency to inhibit 3H ]DAMGO binding to mu receptor relative to [Leu]enkephalin

SMILES | Relative potency [1] | Relative potency [2] | Relative potency [3]
CC(C)[C@H](NC(=O)[C@H](CC(=O)O)NC(=O)[C@H](Cc1ccccc1)NC(=O)[C@@H]1Cc2ccccc2CN1C(=O)[C@@H](N)Cc1ccc(O)cc1)C(=O)N[C@H](C(=O)NCC(N)=O)C(C)C | 0.39 | – | –
CC(C)[C@@H]1NC(=O)[C@@H](C(C)C)NC(=O)[C@H](NC(=O)[C@H](Cc2ccccc2)NC(=O)CNC(=O)[C@@H](N)Cc2ccc(O)cc2)CCC(=O)NCCCC[C@@H](C(N)=O)NC1=O | – | 0.00349 | 0.00987
NC(=O)[C@@H]1CC(=O)NCCC[C@@H](NC(=O)[C@@H](N)Cc2ccc(O)cc2)C(=O)N[C@@H](Cc2ccccc2)C(=O)N1 | – | 0.00114 | 0.907
CCCC[C@H](NC(=O)[C@H](CC(C)C)NC(=O)[C@H](Cc1c[nH]cn1)NC(=O)[C@H](Cc1ccccc1)NC(=O)[C@@H](CCCC)NC(=O)[C@@H](N)Cc1ccc(O)cc1)C(=O)N[C@@H](CC(=O)O)C(N)=O | – | 3.8 | 0.0806
CC(C)[C@@H]1NC(=O)[C@@H](CC(=O)O)NC(=O)[C@H](Cc2ccccc2)NC(=O)[C@H](NC(=O)[C@@H](N)Cc2ccc(O)cc2)CCCCNC(=O)CC[C@H](C(N)=O)NC(=O)[C@@H](C(C)C)NC1=O | – | 0.0102 | 0.0106
CSCC[C@H](NC(=O)[C@H](CC(C)C)NC(=O)[C@H](Cc1c[nH]cn1)NC(=O)[C@H](Cc1ccccc1)NC(=O)[C@@H](CCSC)NC(=O)[C@@H](N)Cc1ccc(O)cc1)C(=O)N[C@@H](CC(=O)O)C(N)=O | – | – | 0.0659 and 0.0227
CC(C)[C@@H]1NC(=O)[C@@H](NC(=O)[C@H](Cc2ccccc2)NC(=O)[C@@H](C)NC(=O)[C@@H](N)Cc2ccc(O)cc2)CC(=O)NCCC[C@H](C(N)=O)NC(=O)[C@@H](C(C)C)NC1=O | – | 0.0045 | 0.0279
CC(C)[C@H](NC(=O)[C@H](CC(=O)O)NC(=O)C1(NC(=O)[C@@H](C)NC(=O)[C@@H](N)Cc2ccc(O)cc2)Cc2ccccc2C1)C(=O)N[C@H](C(=O)NCC(N)=O)C(C)C | – | 0.51 | –
CC(C)[C@H](NC(=O)[C@@H]1CCC(=O)NCCCC[C@@H](NC(=O)[C@@H](N)Cc2ccc(O)cc2)C(=O)N[C@@H](Cc2ccccc2)C(=O)N1)C(=O)N[C@H](C(=O)NCC(N)=O)C(C)C | – | 0.691 | 0.539
